# Values of other authors in US6693073B2, “Pulmonary delivery of active agents” (Emisphere Technologies, Inc., priority 1998, dated 2004).
# Conditions: intravenous administration of 0.1 u/kg to rabbits; previously reported; cited from earlier work
substance,measurement,value
bovine insulin,t ½,30 min
